Biological target: rat OFQ receptor (LC132) (Rattus norvegicus, UniProt P35370)
Assay: OFQ-R binding assay ([3H]-OFQ competition, 293s-OFQ-R membranes)
Settings: IC50 converted to Ki by Cheng and Prusoff

By UniProt entry, the sequences of proteins in these tests, tags left out. Where a name states a change or a piece, a line headed by the entry shows the natural chain unless it says otherwise.
UniProt P35370: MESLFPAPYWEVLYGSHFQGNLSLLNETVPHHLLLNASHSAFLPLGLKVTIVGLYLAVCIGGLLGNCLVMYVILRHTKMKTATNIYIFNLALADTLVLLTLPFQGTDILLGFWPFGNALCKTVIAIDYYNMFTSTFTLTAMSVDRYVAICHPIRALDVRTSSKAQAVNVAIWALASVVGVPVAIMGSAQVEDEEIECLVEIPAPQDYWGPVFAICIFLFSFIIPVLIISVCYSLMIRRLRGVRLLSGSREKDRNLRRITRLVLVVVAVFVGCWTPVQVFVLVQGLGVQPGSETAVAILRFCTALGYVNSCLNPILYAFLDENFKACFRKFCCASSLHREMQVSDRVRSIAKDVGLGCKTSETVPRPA

| SMILES | affinity to the OFQ-receptor, given as pKi |
| --- | --- |
| CC(C)[C@H]1CC[C@@H](N2CCC3(CC2)C(=O)CCN3c2ccccc2)CC1.Cl (relative stereo) | 9.4 |
| Cl.c1ccc(N2CCCC23CCN(C2Cc4cccc5cccc2c45)CC3)cc1 (racemic) | 8.6 |
